Measurements reported in patent US9266902B2, “Labelling reagents having a pyridine nucleus bearing a diazomethyl function, process for synthesis of such reagents and processes for detection of biological molecules” (priority 2008, dated 2016).

Test: Stability in the dry form at +4° C. after lyophilisation (HPLC purity over time)
Settings: 250 mM in 10 mM Tris HCl pH 7.5 and 10% trehalose, lyophilised one night

With Pyridine Diazo Ketone Biotin [PyDKB] the stability to lyophilisation was “perfectly stable”.
